UUG fidelity: modulators of yeast start codon fidelity, primary screen, whole organism, S. cerevisiae, single point, plate reader; S. cerevisiae UUG-firefly luciferase reporter, luminescence/redox ratio; activity score, % at 18.7 µM; 0.13% of 350,000 active; AID 602363, 2012;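 active = replicate mean at a twofold rise or more, about +100% in these data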;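 also: firefly luciferase made from a UUG start codon reports start codon fidelity; reporter light over untreated wells divided by growth signal over untreated wells; some hits fall short of that in this replicate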
ALR inh: human ALR oxidase inhibition via reduced H2O2. P55789. purified ALR, DTT oxidation, H2O2 HRP-luminol luminescence. inhibition, % (no concentration beside the values). 290,000 tested, 3.8% active. AID 485317;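 active = mean and each replicate at 75% or more; inconclusive = only one of the two met; inactive = neither met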;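 also: stock transfer was 7.5 nL into about 7.5 µL; 0% = neutral wells and 100% = wells with inactivated enzyme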
MC4R antagonist: antagonists of human melanocortin 4 receptor (MC4R) | inhibition, % at 6.5 µM | P32245 | 360,000 compounds, 0.48% hits | MC4R-expressing cells, MTII-stimulated cAMP, LANCE TR-FRET;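 active = inhibition above its plate's cutoff, the mean of tested wells on that plate plus 3 SD, cut at about 29% in these data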;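 note: 0% = Melanotan II alone and 100% = Melanotan II plus saturating MCL0020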
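Assay system: human MC4R-expressing U2OS cells; reagent: Melanotan II stimulation of cells; dosing: 6.5 µM single dose; timing: compound 30 min, challenge 1 h, detection 1 h; signal: TR-FRET cAMP assay; replicates: one well per compound, no replicates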
HDAC3 inh: inhibitors of human histone deacetylase 3; O15379; recombinant HDAC3, fluorogenic peptide/trypsin coupled, fluorescence; inhibition, % at 8.3 µM; 320,000 compounds, 0.15% hits; AID 2718; in the data active = inhibition above about 26%, passing the limit was not always enough; inconclusive = no clear call, values can overlap the other calls
MC4R ag barr: activates human MC4R beta-arrestin recruitment; U2OS MC4R beta-arrestin complementation, luminescence; percent of melanotan II response, DMSO zero; activation, % at 8.9 µM; 360,000 compounds, 0.98% hits; AID 540308;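 active = activation above a per-plate cutoff, the mean activation of sample wells on that plate plus 3 SD, cut at about 8% in these data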
NALP1 yeast inh: NALP1 inhibition | S. cerevisiae NALP1/ASC/caspase-1 growth, X-gal OD620, 72 h | inhibition, % at 10 µM | 280,000 compounds, 0.61% hits; in the data active = inhibition mostly above about 24%, no sharp cut-off; inactive = mostly below about 32%
An asterisk follows results filed as active. Hits are enriched below; roughly 4.2% of the tested compounds scored in any of these assays.

How did O=C1C=CC(=C(c2ccc(O)cc2)c2ccc(O)cc2)C=C1 do in these assays?
UUG fidelity: 1; ALR inh: 99*; MC4R antagonist: 5; HDAC3 inh: -7; MC4R ag barr: -3

What do the screens show for `COc1ccc(NC(=O)N(C)C[C@@H]2Oc3ccc(NC(=O)C4CC4)cc3CC(=O)N([C@@H](C)CO)C[C@H]2C)cc1`?
UUG fidelity: 2

How did C=CCn1c(C(C)NC(=O)c2cccc(C)c2)n[nH]c1=S (stereo unspecified) do in these assays?
ALR inh: 93*; MC4R antagonist: 15; HDAC3 inh: 7; MC4R ag barr: 1; NALP1 yeast inh: 4

Results for Nc1ccc2c(c1)COc1ccccc1O2 ?
UUG fidelity: 11; ALR inh: 99*; MC4R antagonist: 0; HDAC3 inh: 3; MC4R ag barr: 4; NALP1 yeast inh: 8

Results for COc1ccccc1-c1cnc2c(c1)C(=O)N([C@@H](C)CO)C[C@H](C)[C@H](CN(C)Cc1ccncc1)O2 ?
UUG fidelity: -3

What do the screens show for `c1ccc2c(CSCCc3ccncc3)cccc2c1`?
ALR inh: 100*; MC4R antagonist: -6; HDAC3 inh: 4; MC4R ag barr: -2; NALP1 yeast inh: -16

Results for O=C(NC1CCCC1)N1CCCCN2[C@H](CO)[C@H](c3ccc(/C=C/c4ccccc4)cc3)[C@@H]2C1 ?
UUG fidelity: 5

How did Cc1c(C#N)c(NC(=O)CCl)n(Cc2ccc(F)cc2)c1C do in these assays?
ALR inh: 32; MC4R antagonist: 16; HDAC3 inh: 3; MC4R ag barr: -3; NALP1 yeast inh: -6

What do the screens show for `Cc1c(C#N)c(NC(=O)CCl)n(Cc2ccccc2)c1C`?
UUG fidelity: 4; ALR inh: 96*; MC4R antagonist: 10; HDAC3 inh: -6; MC4R ag barr: -3; NALP1 yeast inh: 1

How did CC(=O)c1cc(C#N)c(NCc2ccccc2)nc1C do in these assays?
ALR inh: -19; MC4R antagonist: -7; HDAC3 inh: -3; MC4R ag barr: 1; NALP1 yeast inh: 0

Results for CCOC(=O)c1cc(C#N)c(NCc2ccccc2)nc1C ?
UUG fidelity: -22; ALR inh: -7; MC4R antagonist: -7; HDAC3 inh: 1; MC4R ag barr: 8.8*; NALP1 yeast inh: 15

What do the screens show for `Cc1cc2nc(-c3ccc(SCC(=O)N4CCN(C(=O)c5ccco5)CC4)nc3)[nH]c2cc1C`?
UUG fidelity: -22; ALR inh: 99*; MC4R antagonist: 6; HDAC3 inh: -6; MC4R ag barr: 1; NALP1 yeast inh: -24

Results for Cc1cc2nc(-c3ccc(SCc4ccccn4)nc3)[nH]c2cc1C ?
UUG fidelity: -16; ALR inh: 98*; MC4R antagonist: 16; HDAC3 inh: -7; MC4R ag barr: 2; NALP1 yeast inh: -2

How did Cc1cc2nc(-c3ccc(SCC(=O)N4CCOCC4)nc3)[nH]c2cc1C do in these assays?
UUG fidelity: -4; ALR inh: inconclusive; MC4R antagonist: 7; HDAC3 inh: -11; MC4R ag barr: 2; NALP1 yeast inh: 10

How did Oc1ccc(C2=NN(c3ccccc3)C(c3ccc(F)cc3)C2)cc1 (stereo unspecified) do in these assays?
UUG fidelity: -13; ALR inh: 97*; MC4R antagonist: 0; HDAC3 inh: -4; MC4R ag barr: -1; NALP1 yeast inh: -8

What do the screens show for `Oc1ccccc1C1=NN(c2ccccc2)C(c2ccc(F)cc2)C1` (stereo unspecified)?
UUG fidelity: -5; ALR inh: -3; MC4R antagonist: -3; HDAC3 inh: -6; MC4R ag barr: 1; NALP1 yeast inh: 9

Results for CC(=O)Nc1ccc(C2CC(c3ccc(Cl)cc3)=NN2c2ccccc2)cc1 (stereo unspecified) ?
UUG fidelity: -17; ALR inh: -1; MC4R antagonist: 8; HDAC3 inh: -69; MC4R ag barr: -1; NALP1 yeast inh: -7

What do the screens show for `O=C(O)c1ccc(N2N=C(c3ccccc3)CC2c2ccccc2)cc1` (stereo unspecified)?
UUG fidelity: -22; ALR inh: 92*; MC4R antagonist: 11; HDAC3 inh: -282; MC4R ag barr: -1; NALP1 yeast inh: 21

How did CC(=O)Nc1ccc(C2=NN(c3ccccc3)C(c3ccccc3)C2)cc1 (stereo unspecified) do in these assays?
UUG fidelity: 0; ALR inh: 96*; MC4R antagonist: 24; HDAC3 inh: 2; MC4R ag barr: 6; NALP1 yeast inh: 17

Results for CO[C@H]1CN(C)C(=O)c2cc(NC(=O)Nc3ccccc3F)ccc2OC[C@H](C)NC[C@@H]1C ?
UUG fidelity: -3

3 structures from above, sorted by formula weight, ascending:
How did O=C1C=CC(=C(c2ccc(O)cc2)c2ccc(O)cc2)C=C1 do in these assays?
UUG fidelity: 1; ALR inh: 99*; MC4R antagonist: 5; HDAC3 inh: -7; MC4R ag barr: -3

Results for COc1ccccc1-c1cnc2c(c1)C(=O)N([C@@H](C)CO)C[C@H](C)[C@H](CN(C)Cc1ccncc1)O2 ?
UUG fidelity: -3

What do the screens show for `COc1ccc(NC(=O)N(C)C[C@@H]2Oc3ccc(NC(=O)C4CC4)cc3CC(=O)N([C@@H](C)CO)C[C@H]2C)cc1`?
UUG fidelity: 2

Next compounds follow.
How did O=C(N[C@@H]1CC[C@@H](CC(=O)N2CCCCC2)O[C@@H]1CO)c1cccc(F)c1 do in these assays?
UUG fidelity: -11

How did CO[C@H]1CN(C)C(=O)c2ccc(NC(C)=O)cc2OC[C@@H](C)N(C(=O)C2CCOCC2)C[C@H]1C do in these assays?
UUG fidelity: 3

What do the screens show for `COc1ccc(NC(=O)N(C)C[C@H]2Oc3ccc(NS(=O)(=O)c4ccc(Cl)cc4)cc3CC(=O)N([C@@H](C)CO)C[C@@H]2C)cc1`?
UUG fidelity: -16

What do the screens show for `O=C(N[C@@H](Cc1ccccc1)C(=O)NC1CCCCC1)c1ccco1`?
UUG fidelity: -20; ALR inh: -2; MC4R antagonist: 6; HDAC3 inh: 1; MC4R ag barr: -2; NALP1 yeast inh: 45

What do the screens show for `O=C(N[C@@H](Cc1ccccc1)C(=O)NC1CCCCCC1)c1ccco1`?
UUG fidelity: -12; ALR inh: -8; MC4R antagonist: 14; HDAC3 inh: 6; MC4R ag barr: 0; NALP1 yeast inh: 41*

What do the screens show for `COc1ccc(N=C2S/C(=C\c3ccc(C)o3)C(=O)N2CC(C)C)cc1`?
UUG fidelity: -14; ALR inh: 4; MC4R antagonist: 16; HDAC3 inh: 7; MC4R ag barr: 1; NALP1 yeast inh: 40*

Results for CC(C)(C)n1nc(-c2ccc(F)cc2)c2c(N)ncnc21 ?
UUG fidelity: -23; ALR inh: -11; MC4R antagonist: 2; HDAC3 inh: -4; MC4R ag barr: -2; NALP1 yeast inh: 92*

What do the screens show for `C[C@@H]1CN([C@@H](C)CO)C(=O)Cc2cc(NC(=O)Cc3ccccc3)ccc2O[C@@H]1CN(C)S(=O)(=O)c1cn(C)cn1`?
UUG fidelity: -9

How did COCC#Cc1cnc2c(c1)C(=O)N([C@H](C)CO)C[C@H](C)[C@@H](CN(C)S(=O)(=O)c1cn(C)cn1)O2 do in these assays?
UUG fidelity: -7

How did COc1ccc(NC2CCCN(C(=O)CCC(=O)c3ccc(F)cc3)C2)cc1 (stereo unspecified) do in these assays?
UUG fidelity: -13; ALR inh: 99*; MC4R antagonist: 0; HDAC3 inh: 3; MC4R ag barr: -3; NALP1 yeast inh: -12

High-throughput results as filed in PubChem BioAssay.
